From patent US20250276962A1, “CONTRACEPTIVE COMPOUNDS AND METHODS” (Regents of the University of Minnesota, priority 2021, published 2025) come the findings set out here.

Amino acid sequences for entries named in this document (tags omitted).
UniProt P13631, whole entry, species assumed: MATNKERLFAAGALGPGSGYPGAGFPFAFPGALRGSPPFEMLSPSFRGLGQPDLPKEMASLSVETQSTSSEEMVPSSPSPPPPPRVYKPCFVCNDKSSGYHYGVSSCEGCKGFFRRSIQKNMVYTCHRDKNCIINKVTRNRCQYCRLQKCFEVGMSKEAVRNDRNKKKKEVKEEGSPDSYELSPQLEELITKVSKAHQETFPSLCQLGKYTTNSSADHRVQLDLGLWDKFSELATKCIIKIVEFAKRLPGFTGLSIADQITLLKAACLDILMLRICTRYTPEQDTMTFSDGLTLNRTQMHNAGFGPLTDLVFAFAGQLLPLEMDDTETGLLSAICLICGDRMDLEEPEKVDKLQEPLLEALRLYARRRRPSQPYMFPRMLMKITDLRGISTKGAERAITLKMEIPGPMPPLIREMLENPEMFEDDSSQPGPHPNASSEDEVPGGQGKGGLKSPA
UniProt P10826, whole entry, species assumed: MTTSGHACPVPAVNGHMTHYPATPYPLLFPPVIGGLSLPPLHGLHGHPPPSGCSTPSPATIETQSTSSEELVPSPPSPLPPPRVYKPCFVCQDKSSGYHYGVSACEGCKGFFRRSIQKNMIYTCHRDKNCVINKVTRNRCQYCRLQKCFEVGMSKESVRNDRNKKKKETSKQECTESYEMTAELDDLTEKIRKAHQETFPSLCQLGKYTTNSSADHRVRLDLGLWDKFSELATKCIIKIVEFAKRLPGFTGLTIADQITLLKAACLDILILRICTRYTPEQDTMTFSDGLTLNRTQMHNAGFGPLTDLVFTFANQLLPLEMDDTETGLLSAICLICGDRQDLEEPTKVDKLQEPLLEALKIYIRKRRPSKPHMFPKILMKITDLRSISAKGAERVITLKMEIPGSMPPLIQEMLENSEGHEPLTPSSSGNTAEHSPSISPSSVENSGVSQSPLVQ
UniProt P10276, whole entry, species assumed: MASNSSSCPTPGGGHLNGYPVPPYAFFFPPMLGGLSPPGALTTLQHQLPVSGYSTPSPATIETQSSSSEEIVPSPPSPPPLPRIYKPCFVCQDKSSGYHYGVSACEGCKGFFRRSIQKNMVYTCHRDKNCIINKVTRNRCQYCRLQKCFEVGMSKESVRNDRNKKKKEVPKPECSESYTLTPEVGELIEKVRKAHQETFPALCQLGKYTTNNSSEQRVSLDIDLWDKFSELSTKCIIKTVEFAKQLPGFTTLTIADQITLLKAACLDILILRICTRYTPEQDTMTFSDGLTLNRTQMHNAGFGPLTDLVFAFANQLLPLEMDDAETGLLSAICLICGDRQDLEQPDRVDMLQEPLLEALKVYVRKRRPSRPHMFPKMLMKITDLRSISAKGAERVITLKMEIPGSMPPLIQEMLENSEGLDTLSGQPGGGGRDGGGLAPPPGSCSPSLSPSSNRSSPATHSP

One test deals with T1, RARγ (Homo sapiens, UniProt P13631).
T1 construct: host or cells: unnamed reporter cells
Description: Transactivation (luciferase) antagonist assay, RARγ. The class given is cell-based.

Another test addresses T2, RARβ (Homo sapiens, UniProt P10826).
T2 construct: host or cells: unnamed reporter cells
As to the kind of experiment: Transactivation (luciferase) antagonist assay, RARβ. The test is classed as cell-based.

A further test has as its target RARα (Homo sapiens, UniProt P10276). As to the kind of experiment: Transactivation (luciferase) antagonist assay, RARα.

pIC50: −log10 of the molar value.

What is called pIC50 is the negative decadic logarithm of the IC50, by convention in mol/L. Higher therefore signals a low IC50. For the molecule `CC1(C)C=C(c2ccc(C(F)(F)F)cc2)c2cc(-c3ccc(-c4ccc(C(=O)O)cc4)[nH]3)ccc2O1`, the pIC50 at RARγ is under 5.52; against RARβ, under 5.52; against RARα, 5.88.
For the molecule `COc1ccc(C2=CC(C)(C)Oc3ccc(-c4ccc(-c5ccc(C(=O)O)cc5)[nH]4)cc32)cc1`, the pIC50 is under 5.52 at RARγ, under 5.52 against RARβ and 6.43 against RARα.
Turning to `CCC1(CC)C=C(c2ccc(C)cc2)c2cc(-c3ccc(-c4ccc(C(=O)O)cc4)[nH]3)ccc2O1`, the pIC50 against RARα was under 5.48.
For `CC1(C)C=C(c2ccc(F)cc2)c2cc(-c3ccc(-c4ccc(C(=O)O)cc4)[nH]3)ccc2O1`, the results for the pIC50 against RARγ, against RARβ and against RARα were under 5.52, under 5.52 and 7.36, respectively.
Consider `Cc1ccc(C2=CC(C)(C)Oc3c(Br)cc(-c4ccc(-c5ccc(C(=O)O)cc5)[nH]4)cc32)cc1`, for which the pIC50 against RARα was 6.13.
`Cc1ccc(C2=CC(C)(C)Oc3c(C)cc(-c4ccc(-c5ccc(C(=O)O)cc5)[nH]4)cc32)cc1` had a pIC50 against RARα of 6.11.
`CC1(C)C=C(c2ccc([N+](=O)[O-])cc2)c2cc(-c3ccc(-c4ccc(C(=O)O)cc4)[nH]3)ccc2O1`: the pIC50 at RARγ was under 5.52; on RARβ, under 5.52; at RARα, 6.09.
As for `CC(C)c1ccc(C2=CC(C)(C)Oc3ccc(-c4ccc(-c5ccc(C(=O)O)cc5)[nH]4)cc32)cc1`, the pIC50 against RARγ is under 5.52; against RARβ it was under 5.52; against RARα, under 5.48.
With `Cc1ccc(C2=CC(C)(C)Oc3cc(O)c(-c4ccc(-c5ccc(C(=O)O)cc5)[nH]4)cc32)cc1`, the pIC50 on RARα was under 5.48.
In the case of `CCc1ccc(C2=CC(C)(C)Oc3ccc(-c4ccc(-c5ccc(C(=O)O)cc5)[nH]4)cc32)cc1`, the pIC50 is under 5.52 against RARγ, under 5.52 against RARβ and 6.33 on RARα.
Molecule `Cc1ccc(C2=CC(C)(C)Oc3c(Cl)cc(-c4ccc(-c5ccc(C(=O)O)cc5)[nH]4)cc32)cc1` showed a pIC50 against RARα of 6.03.
As for `CC1(C)C=C(c2ccc(C(C)(C)C)cc2)c2cc(-c3ccc(-c4ccc(C(=O)O)cc4)[nH]3)ccc2O1`, the pIC50 on RARγ, against RARβ and on RARα was under 5.52 throughout.
